# This is a selection; strong and weak results do not stand in their true shares. Calls of active or inactive are those of the source.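 Rule for the calls: active = percent inhibition above the average of all tested compounds plus 3 SD, set per screening campaign (cut at about 16% in these data); inactive = the rest.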
# Protein sequences, listed by entry. Tags and fused reporters are not part of them.
# UniProt P14735, whole entry, looked up: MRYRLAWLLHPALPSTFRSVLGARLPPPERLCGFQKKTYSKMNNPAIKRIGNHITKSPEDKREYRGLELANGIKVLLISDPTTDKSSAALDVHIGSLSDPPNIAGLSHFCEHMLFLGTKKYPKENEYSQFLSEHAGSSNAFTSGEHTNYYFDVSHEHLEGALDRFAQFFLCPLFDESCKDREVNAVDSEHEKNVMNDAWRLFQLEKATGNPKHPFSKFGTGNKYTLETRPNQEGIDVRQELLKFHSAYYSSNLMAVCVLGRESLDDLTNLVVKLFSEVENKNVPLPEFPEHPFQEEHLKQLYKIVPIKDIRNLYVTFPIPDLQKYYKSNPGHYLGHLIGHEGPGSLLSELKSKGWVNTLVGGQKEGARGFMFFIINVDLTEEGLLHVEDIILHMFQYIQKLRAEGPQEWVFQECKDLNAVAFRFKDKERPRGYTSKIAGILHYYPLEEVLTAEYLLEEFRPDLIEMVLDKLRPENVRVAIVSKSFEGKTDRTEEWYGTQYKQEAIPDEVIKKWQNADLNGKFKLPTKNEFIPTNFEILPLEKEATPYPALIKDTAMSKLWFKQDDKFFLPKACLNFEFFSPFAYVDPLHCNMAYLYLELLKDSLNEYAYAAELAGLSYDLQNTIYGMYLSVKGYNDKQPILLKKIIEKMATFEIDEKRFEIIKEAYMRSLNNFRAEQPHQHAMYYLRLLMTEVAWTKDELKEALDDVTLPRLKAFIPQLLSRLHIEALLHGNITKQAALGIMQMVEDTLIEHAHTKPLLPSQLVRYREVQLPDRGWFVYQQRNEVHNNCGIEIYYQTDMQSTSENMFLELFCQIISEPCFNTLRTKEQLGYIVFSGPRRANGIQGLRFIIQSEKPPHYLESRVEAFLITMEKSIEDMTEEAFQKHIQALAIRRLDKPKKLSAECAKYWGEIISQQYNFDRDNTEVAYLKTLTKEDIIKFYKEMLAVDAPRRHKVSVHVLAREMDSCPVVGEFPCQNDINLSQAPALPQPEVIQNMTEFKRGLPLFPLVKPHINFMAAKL
# Target: Insulin-degrading enzyme (Homo sapiens) (UniProt P14735)
# Experiment: human IDE inhibitors in live cells, primary screen, fluorescence polarization, HEK cells, FAbetaB substrate (AID 434962);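 note: IDE supplied by intact live HEK cells; FP after avidin binding of uncleaved biotin substrate so inhibition keeps polarization high; 0% = DMSO wells and 100% = 60 µM reference IDE inhibitor Ii1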
# Settings: FAbetaB cleavage, at 5.59 µM, stronger effect = higher value
row,SMILES,inhibition
1,O=c1c2ccccc2[se]n1-c1ccccc1,active: 100%
